Biological target: recombinant human CYP2C19 (Homo sapiens, UniProt P33261)
Experiment: P450-Glo bioluminescent CYP450 inhibition assay
Format: in vitro ADME
Settings: CYP2C19 inhibitory potency class, class by IC50

By UniProt entry, the sequences of proteins in these tests, tags left out.
UniProt P33261, whole entry: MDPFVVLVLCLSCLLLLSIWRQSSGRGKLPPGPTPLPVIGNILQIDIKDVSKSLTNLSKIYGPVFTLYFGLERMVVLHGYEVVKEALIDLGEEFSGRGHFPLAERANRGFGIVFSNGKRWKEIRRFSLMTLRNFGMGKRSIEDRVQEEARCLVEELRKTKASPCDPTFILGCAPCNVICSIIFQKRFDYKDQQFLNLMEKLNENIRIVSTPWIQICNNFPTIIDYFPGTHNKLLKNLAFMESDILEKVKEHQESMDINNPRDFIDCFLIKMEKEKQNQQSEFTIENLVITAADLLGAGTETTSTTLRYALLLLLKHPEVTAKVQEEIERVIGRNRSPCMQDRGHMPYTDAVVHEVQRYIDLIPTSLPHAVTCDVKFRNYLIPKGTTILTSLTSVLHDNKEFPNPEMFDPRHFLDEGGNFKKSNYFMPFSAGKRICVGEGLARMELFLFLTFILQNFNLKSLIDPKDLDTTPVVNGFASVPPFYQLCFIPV

- IC50: < 10 µM
SMILES: Cc1c(C)c2c(c(C)c1O)CCC(C)(COc1ccc(CC3SC(=O)NC3=O)cc1)O2 (stereo not shown) [Troglitazone, troglitazone, reference compound]

Source: PMC10413907 (Journal of Evidence-based Integrative Medicine, 2023)
